Experimental findings from BindingDB's records for 2172538 are described below.

Protein sequences, listed by entry. Tags and fused reporters are not part of them.
UniProt Q99720, whole entry: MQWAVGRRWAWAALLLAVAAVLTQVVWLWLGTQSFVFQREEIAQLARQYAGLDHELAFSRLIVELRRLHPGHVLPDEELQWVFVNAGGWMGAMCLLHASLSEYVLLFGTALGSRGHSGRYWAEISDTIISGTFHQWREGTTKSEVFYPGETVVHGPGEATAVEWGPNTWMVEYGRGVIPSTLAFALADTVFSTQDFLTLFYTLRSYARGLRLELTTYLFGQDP

This is a selection: effects in other tests are not listed, and their absence says nothing.

In this assay the target is Sigma non-opioid intracellular receptor 1 (Homo sapiens, UniProt Q99720). Kind of assay: ASSAY_NAME: ChEMBL_201137 (CHEMBL803878) DESCRIPTION: Binding affinity for sigma opioid receptor using [3H](+)-3-PPP as radioligand.
Take `CN(C(=O)CCCOc1ccc(Cl)cc1Cl)C1CCCC[C@H]1N1CCCC1` (some centres not stated): the IC50 was 418 nM.

In the case of `CN(C(=O)COc1ccc(Cl)cc1Cl)C1CCCC[C@@H]1N1CCCC1` (some centres not stated), the IC50 was 76 nM.

In the case of `COc1cc(CC(=O)N(C)C2CCCC[C@@H]2N2CCCC2)cc(OC)c1OC` (some centres not stated), the IC50 came to 302 nM.

Consider `COc1cc(CCC(=O)N(C)C2CCCC[C@@H]2N2CCCC2)cc(OC)c1OC` (some centres not stated), for which the IC50 came to 2670 nM.

As to `COc1ccccc1CC(=O)N(C)C1CCCC[C@@H]1N1CCCC1` (some centres not stated), the IC50 was found to be 208 nM.

The compound `COc1cccc(CC(=O)N(C)C2CCCC[C@@H]2N2CCCC2)c1` (some centres not stated) returned an IC50 of 211 nM.

`CN(C(=O)COc1cccc(Cl)c1Cl)C1CCCC[C@@H]1N1CCCC1` (some centres not stated) had an IC50 of 42 nM.

Consider `CN(C(=O)COc1ccccc1)C1CCCC[C@@H]1N1CCCC1` (some centres not stated), for which the half-inhibitory concentration (IC50) was 1250 nM.

For `COc1ccc(CC(=O)N(C)C2CCCC[C@@H]2N2CCCC2)cc1` (some centres not stated), the IC50 was found to be 196 nM.

The compound `CN(C(=O)CSc1ccccc1)C1CCCC[C@@H]1N1CCCC1` (some centres not stated) came in with an IC50 of 200 nM.

Consider `CN(C(=O)/C=C/c1ccc(Cl)c(Cl)c1)C1CCCC[C@@H]1N1CCCC1` (some centres not stated), for which the IC50 was found to be 3650 nM.

As to `CN(C(=O)COc1ccc(Cl)c(Cl)c1)C1CCCC[C@@H]1N1CCCC1` (some centres not stated), the IC50 was 110 nM.

The IC50 is the concentration needed to halve the response being measured. A lower IC50 goes with greater potency in that assay.
